Values quoted from earlier work in patent US20230364009A1, “Implantable Medical Device for the Delivery of an Antipsychotic” (Celanese EVA Performance Polymers LLC, priority 2022, published 2023).

System: cholinergic muscarinic receptors

For `Cc1nc2n(c(=O)c1CCN1CCC(c3noc4cc(F)ccc34)CC1)CCCC2` [Risperidone, risperidone], the affinity is listed as “no affinity”.
